ChEMBL document CHEMBL5512628, “Current advances and development strategies of targeting son of sevenless 1 (SOS1) in drug discovery” (Eur J Med Chem, 2024)

By UniProt entry, the sequences of proteins in these tests, tags left out.
UniProt Q07889, whole entry, looked up, stated change not applied: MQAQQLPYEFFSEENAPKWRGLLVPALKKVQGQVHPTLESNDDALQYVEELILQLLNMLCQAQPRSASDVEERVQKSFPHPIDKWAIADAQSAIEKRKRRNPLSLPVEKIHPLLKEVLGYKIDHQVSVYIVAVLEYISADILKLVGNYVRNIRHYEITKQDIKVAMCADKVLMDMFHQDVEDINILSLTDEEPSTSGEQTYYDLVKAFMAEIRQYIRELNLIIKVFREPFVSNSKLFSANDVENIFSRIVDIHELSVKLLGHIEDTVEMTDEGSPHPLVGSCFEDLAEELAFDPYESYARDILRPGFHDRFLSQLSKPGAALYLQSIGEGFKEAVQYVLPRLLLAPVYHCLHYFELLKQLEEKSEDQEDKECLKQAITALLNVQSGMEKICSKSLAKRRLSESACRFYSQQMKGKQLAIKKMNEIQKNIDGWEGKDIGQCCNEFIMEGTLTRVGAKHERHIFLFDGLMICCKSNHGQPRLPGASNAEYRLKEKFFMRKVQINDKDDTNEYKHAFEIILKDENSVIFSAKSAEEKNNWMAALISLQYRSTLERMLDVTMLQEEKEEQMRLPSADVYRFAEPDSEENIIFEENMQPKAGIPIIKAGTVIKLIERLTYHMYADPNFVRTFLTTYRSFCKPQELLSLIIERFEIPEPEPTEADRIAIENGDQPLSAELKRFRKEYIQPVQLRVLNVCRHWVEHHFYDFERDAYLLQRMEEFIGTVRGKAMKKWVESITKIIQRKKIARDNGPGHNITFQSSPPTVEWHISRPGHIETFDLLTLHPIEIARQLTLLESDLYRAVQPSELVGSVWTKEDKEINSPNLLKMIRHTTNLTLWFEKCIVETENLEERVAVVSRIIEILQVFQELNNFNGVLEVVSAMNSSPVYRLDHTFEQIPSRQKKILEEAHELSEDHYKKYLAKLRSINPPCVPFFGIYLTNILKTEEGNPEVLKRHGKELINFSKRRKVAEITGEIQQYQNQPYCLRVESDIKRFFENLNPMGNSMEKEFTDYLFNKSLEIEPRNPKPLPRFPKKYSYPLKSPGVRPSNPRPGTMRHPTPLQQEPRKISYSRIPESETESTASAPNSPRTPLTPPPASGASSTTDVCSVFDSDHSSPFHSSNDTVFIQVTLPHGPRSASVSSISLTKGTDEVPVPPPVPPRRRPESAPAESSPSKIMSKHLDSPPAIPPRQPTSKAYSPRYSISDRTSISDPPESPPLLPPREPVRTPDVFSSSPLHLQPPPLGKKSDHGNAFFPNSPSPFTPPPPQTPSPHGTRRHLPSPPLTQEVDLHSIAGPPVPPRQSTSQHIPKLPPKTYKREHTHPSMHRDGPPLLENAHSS

Molecular target: Son of sevenless homolog 1 (Homo sapiens, UniProt Q07889, G12C)
Assay: Binding affinity to SOS1 in human NCI-H358 cells expressing KRAS G12C mutant assessed as dissociation constant
Format: cell-based

Kd: < 0.01 µM
SMILES: Cc1cc(Cn2c(N3CCNCC3)nc3c(-c4c(C)n[nH]c4C)cc(Cl)cc32)cc(C)c1F
